Values quoted from earlier work in patent US9782491B2, “Peptide conjugates for treating pain” (priority 2012, dated 2017).

Settings: carrier peptide; cited from earlier work

transportan [TP]
half-life: greater than 72 hrs
